High-throughput results: PubChem BioAssay, Broad Institute
EWS-Fli inh: inhibitors of EWS/Fli oncoprotein transcriptional activity | A673 NR0B1-luciferase reporter, viability-normalised | 350,000 compounds, 0.67% hits | AID 651661 | inhibition, % at 12.6 µM;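 active = mean inhibition of at least 50% after viability correction, with every replicate also passing that limit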;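 also: firefly luciferase signal divided by Alamar Blue viability fluorescence both relative to DMSO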
LGR2 antag: inhibitors of bursicon-induced Drosophila LGR2 receptor cAMP signaling; HEK293 LGR2, CRE-luciferase, bursicon-stimulated, 4 h; inhibition, % at 9.99 µM; 380,000 compounds, 0.35% hits; AID 720647;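 active = drop in luminescence signal, shown as inhibition above about 50% in the replicate tests, limit read from the data, passing the limit was not always enough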;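 also: agonist challenge used bursicon conditioned medium at about half maximal strength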
CFTR F508del cor: CFTR F508del correction in bronchial cells. CFBE cells, YFP halide quenching; stimulated with forskolin plus potentiator P3; % fluorescence drop versus neutral controls. activity (quench increase), % at 7.58 µM. 350,000 compounds, 0.36% hits. AID 720511;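 active = mean added fluorescence quench of at least 8% versus neutral control, with both replicates also reaching 8%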;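 also: cells transiently co-express mutant CFTR-F508del with the halide-sensitive YFP; corrector assay measuring rescue of mutant channel to the surface after 24 h compound exposure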
Yeast UUG start-1: alters start codon recognition fidelity in yeast. S. cerevisiae UUG-firefly luciferase reporter, luminescence/redox ratio. activity score, % at 18.7 µM. 0.13% of 350,000 active. AID 602363;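 active = replicate mean at a twofold rise or more, about +100% in these data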;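 also: firefly luciferase made from a UUG start codon reports start codon fidelity; reporter light over untreated wells divided by growth signal over untreated wells; some hits fall short of that in this replicate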
PglD inh: blocks C. jejuni PglD acetyltransferase activity; purified PglD enzyme, DTNB colorimetric CoA detection; inhibition, % at 12.5 µM; 360,000 compounds, 0.098% hits; AID 602405; in the data active = inhibition above about 16%, passing the limit was not always enough
miR122 inh: miR-122 inhibition in Huh7 cells | Huh7 miR-122 Renilla luciferase sensor, 48 h; neutral wells = 0, positive control = 100 | activation (reporter increase), % at 12.5 µM | 340,000 compounds, 0.3% hits | AID 602342;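 active = mean replicate activation score at least 90 and every replicate individually at or above 90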;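 also: higher luciferase means less miR-122 activity so hits act as miR-122 inhibitors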
Yeast UUG start-2: modulators of start codon recognition fidelity in yeast | activation, % at 38 µM | AID 652061 | 540 tested, under 10 active | shares compounds with Yeast UUG start-1 | S. cerevisiae UUG-start firefly luciferase, luminescence, 4 h; 100% means double the DMSO signal;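 active = signal increase whose fitted curve reaches an absolute level of 40 at a concentration under 10 µM; inactive = activity opposite to the expected increase, or the rest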
Numbers without * were called inactive; i = inactive; · = no result given; [ ] = another dose, or the depositor's remark. Most compounds without a hit are left out; they make up all but 1.3% or so of the library.

Letter code – A = EWS-Fli inh; B = LGR2 antag; C = CFTR F508del cor; D = Yeast UUG start-1; E = PglD inh; F = miR122 inh; G = Yeast UUG start-2
O=C(C[C@@H]1C[C@H]2c3cc(NC(=O)NC4CCCCC4)ccc3O[C@H]2[C@@H](CO)O1)NCc1ccccn1
  A = -1 | B = 12 | C = 0 | D = -22 | E = -2 | F = -5[16.7 µM] | G = ·
COC(=O)C[C@H]1C[C@@H]2c3cc(NC(=O)CC4CC4)ccc3O[C@@H]2[C@@H](CO)O1
  A = 1 | B = 19 | C = 2 | D = 119* | E = -2 | F = -4[16.7 µM] | G = i
O=C(Nc1ccc(C(F)(F)F)cc1)Nc1ccc2c(c1)[C@H]1C[C@H](CC(=O)N3CCc4ccccc4C3)O[C@@H](CO)[C@H]1O2
  A = -2 | B = 14 | C = 0 | D = · | E = 0 | F = 4[16.7 µM] | G = ·
O=C(C[C@@H]1C[C@H]2c3cc(NC(=O)NC4CCCCC4)ccc3O[C@H]2[C@H](CO)O1)NCc1ccccn1
  A = -4 | B = -1 | C = 1 | D = 75* | E = 0 | F = 5[16.7 µM] | G = i
O=C(Nc1ccc2c(c1)[C@@H]1C[C@@H](CC(=O)N3CCc4ccccc4C3)O[C@@H](CO)[C@@H]1O2)Nc1ccccc1F
  A = 3 | B = 28 | C = 0 | D = 61* | E = -2 | F = -3[16.7 µM] | G = i
Nc1ccc(S(=O)(=O)Nc2ccc(S(N)(=O)=O)cc2)cc1
  A = · | B = · | C = · | D = · | E = · | F = 2 | G = ·
CCC(C)(C)NC(=O)C(c1ccccn1)N(C(=O)c1csnn1)c1ccc(C)c(C)c1 (configuration not stated)
  A = -11 | B = 15 | C = 4 | D = · | E = · | F = · | G = ·
COCCOC(=O)C1=C(C)NC2=C(C(=O)CCC2)C1c1cc2c(cc1Br)OCO2 (configuration not stated)
  A = · | B = · | C = · | D = -13 | E = -4 | F = 3 | G = ·
COc1ccc(NC(=O)Nc2ccc3c(c2)[C@@H]2C[C@@H](CC(=O)NCC4CC4)O[C@@H](CO)[C@@H]2O3)cc1
  A = -10 | B = -2 | C = 4 | D = 57* | E = 1 | F = 0[16.7 µM] | G = i
COc1ccc(NC(=O)Nc2ccc3c(c2)[C@H]2C[C@H](CC(=O)NCC4CC4)O[C@H](CO)[C@H]2O3)cc1
  A = -2 | B = 5 | C = -2 | D = -2 | E = -1 | F = 4[16.7 µM] | G = ·
C[C@@H]1CCCCO[C@@H](CN(C)Cc2ccc(C(=O)O)cc2)[C@H](C)CN([C@@H](C)CO)C(=O)c2cc(NS(=O)(=O)c3ccc(F)cc3)ccc2O1
  A = -8 | B = 3 | C = -1 | D = 112* | E = 2 | F = 5[16.7 µM] | G = i
C[C@@H]1CCCCO[C@H](CN(C)Cc2ccc(C(=O)O)cc2)[C@@H](C)CN([C@H](C)CO)C(=O)c2cc(NS(=O)(=O)c3ccc(F)cc3)ccc2O1
  A = -14 | B = 24 | C = 1 | D = -8 | E = -3 | F = -3[16.7 µM] | G = ·
CCOC(=O)CNC(=O)c1ccccc1
  A = · | B = 6 | C = · | D = 103* | E = -4 | F = -1 | G = 10
CN1C(=O)C(C)(C)c2cc(S(=O)(=O)N3CCCC3C(=O)NCc3ccccc3Cl)ccc21 (configuration not stated)
  A = 7 | B = 2 | C = -1 | D = 10 | E = 0 | F = -4 | G = ·
O=C(/C=C\c1ccco1)Nc1nc(-c2ccccc2)cs1
  A = -42 | B = · | C = -2 | D = · | E = · | F = -7 | G = ·
O=C(/C=C/c1ccccc1)Nc1nc(-c2ccncc2)cs1
  A = -16 | B = -6 | C = 1 | D = 594* | E = -1 | F = 7 | G = -7
CC(C)(C#CC(O)(c1ccccc1)c1ccccc1)N1CCCC1
  A = 4 | B = 16 | C = -3 | D = · | E = · | F = · | G = 11
CC(C)(C#CC(O)(c1ccccc1)c1ccccc1)N1CCCCC1
  A = 20 | B = -4 | C = 3 | D = -2 | E = -2 | F = 2 | G = ·
CC(O)(C#CCN1CCCCCC1)c1ccccc1 (configuration not stated)
  A = -3 | B = -6 | C = 2 | D = · | E = · | F = -1 | G = 1
C[C@@H]1CN([C@@H](C)CO)C(=O)Cc2cc(NC(=O)Nc3ccccc3)ccc2O[C@@H]1CN(C)S(=O)(=O)c1cccs1
  A = 3 | B = -16 | C = -1 | D = 17 | E = -1 | F = -8[16.7 µM] | G = ·
O=C(CNC(=O)c1ccccc1F)NCCOc1cccc(Cl)c1Cl
  A = · | B = 8 | C = · | D = 517* | E = -3 | F = 0 | G = 2
COc1ccc(N(C)S(=O)(=O)c2cccc(C(=O)NC3CCCCC3C)c2)cc1 (configuration not stated)
  A = 3 | B = -8 | C = 4 | D = -8 | E = -2 | F = 31 | G = ·
Cn1c(=O)[nH]c(=O)c2c1nc(Br)n2C/C=N/NC(=O)c1ccccc1
  A = 5 | B = 4 | C = -3 | D = 136* | E = -1 | F = -4 | G = 0
Cn1c(=O)[nH]c(=O)c2c1nc(Br)n2C/C=N/Nc1ccccc1
  A = 24 | B = 7 | C = -1 | D = -6 | E = -6 | F = -5 | G = ·
COCC#Cc1ccc([C@H]2[C@H](CO)N3C(=O)CN(C(=O)Nc4ccc(F)cc4)C[C@@H]23)cc1
  A = 1 | B = -12 | C = 2 | D = · | E = · | F = · | G = ·
Oc1ccc(Cl)cc1C1=NCCNC(C(F)(F)C(F)F)=C1
  A = · | B = 10 | C = · | D = -26 | E = -1 | F = -7 | G = ·
O=C1CCCCCN1C(=O)c1ccccc1
  A = -3 | B = 10 | C = -5 | D = · | E = · | F = 5 | G = ·
CC(C)(C)c1ccc(C(=O)N2CCCCCC2=O)cc1
  A = · | B = · | C = · | D = 279* | E = 2 | F = -6 | G = 9
CC(C)CC#Cc1cnc2c(c1)C(=O)N([C@H](C)CO)C[C@H](C)[C@@H](CN(C)C(=O)CC1CC1)O2
  A = 4 | B = -11 | C = -1 | D = 147* | E = -5 | F = 27[16.7 µM] | G = i
CCCC#Cc1cnc2c(c1)C(=O)N([C@H](C)CO)C[C@H](C)[C@@H](CN(C)C(=O)CCN1CCCCC1)O2
  A = 7 | B = -5 | C = -1 | D = 166* | E = -1 | F = -2 | G = 4

2 compounds picked at random from those above, as already listed:
Letter code – A = EWS-Fli inh; B = LGR2 antag; C = CFTR F508del cor; D = Yeast UUG start-1; E = PglD inh; F = miR122 inh; G = Yeast UUG start-2
Nc1ccc(S(=O)(=O)Nc2ccc(S(N)(=O)=O)cc2)cc1
  A = · | B = · | C = · | D = · | E = · | F = 2 | G = ·
O=C1CCCCCN1C(=O)c1ccccc1
  A = -3 | B = 10 | C = -5 | D = · | E = · | F = 5 | G = ·

(cont.)
Letter code – A = EWS-Fli inh; B = LGR2 antag; C = CFTR F508del cor; D = Yeast UUG start-1; E = PglD inh; F = miR122 inh; G = Yeast UUG start-2
Cc1nc(N2CCN(S(=O)(=O)c3ccccc3C#N)CC2)c2c(-c3ccccc3)csc2n1
  A = 1 | B = 12 | C = -2 | D = 141* | E = -4 | F = · | G = -2
O=C1NC(Cc2c[nH]c3ccccc23)C(=O)N1Cc1ccccc1 (configuration not stated)
  A = 5 | B = -1 | C = -5 | D = -12 | E = -3 | F = 6 | G = ·
N#Cc1ccccc1CN1C(=O)NC(Cc2c[nH]c3ccccc23)C1=O (configuration not stated)
  A = 6 | B = -1 | C = -5 | D = 588* | E = -2 | F = 6 | G = 10
OCC(O)C(O)C(O)c1cnn(-c2ccccc2)n1 (configuration not stated)
  A = -5 | B = -6 | C = -1 | D = · | E = · | F = -9 | G = ·
COC(C#CCCN(C)C)(c1ccccc1)c1ccccc1
  A = · | B = 1 | C = · | D = · | E = · | F = · | G = -3
c1cc2c(cnc3cscc32)s1
  A = 11 | B = -5 | C = -3 | D = · | E = · | F = · | G = ·
COc1cc(SC)ccc1C(=O)Nc1ccccc1C#N
  A = · | B = · | C = · | D = 501* | E = 3 | F = 4 | G = 4
O=C(NC1CCOC1)c1ccc(OC2CCN(CCc3ccccc3)CC2)cc1 (configuration not stated)
  A = -4 | B = -12 | C = 2 | D = 503* | E = -4 | F = -2 | G = -2
CN(C(=O)c1ccc(OC2CCN(CCc3ccccc3)CC2)cc1)C1CCOC1 (configuration not stated)
  A = 0 | B = -15 | C = 0 | D = 10 | E = 4 | F = -12 | G = ·
O=C(NC(=S)Nc1cccc(C(F)(F)F)c1)c1ccc2nonc2c1
  A = 13 | B = 10 | C = 2 | D = 139* | E = 2 | F = 13 | G = -8
CC(C)c1nc(N2CCN(C(=O)c3ccco3)CC2)c2c3c(sc2n1)CCCC3
  A = · | B = · | C = · | D = -17 | E = 3 | F = -9 | G = ·

Individual results from above.
Under EWS-Fli inh, Cc1nc(N2CCN(S(=O)(=O)c3ccccc3C#N)CC2)c2c(-c3ccccc3)csc2n1 has 1
Under EWS-Fli inh, N#Cc1ccccc1CN1C(=O)NC(Cc2c[nH]c3ccccc23)C1=O (configuration not stated) has 6
Under EWS-Fli inh, CN(C(=O)c1ccc(OC2CCN(CCc3ccccc3)CC2)cc1)C1CCOC1 (configuration not stated) has 0
